Assay results: PubChem BioAssay (NCI)
Some tests of the compounds listed are not included; inactive here does not mean inactive elsewhere.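 Compound exposure: 48 hours, 5 concentrations, 96-well plates. The concentration for 50% growth inhibition is given as GI50. TGI: total growth inhibition.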

Experiments:
Experiment in all cases: growth of human tumour cells (NCI), 48 h
MDA-N = tested on: MDA-N
RPMI-8226 leukemia = tested on: RPMI-8226 leukemia
PC-3 prostate = tested on: PC-3 prostate
SK-MEL-2 melanoma = tested on: SK-MEL-2 melanoma
SF-539 CNS = tested on: SF-539 CNS
MDA-MB-231 breast = tested on: MDA-MB-231 breast
LOX IMVI melanoma = tested on: LOX IMVI melanoma
OVCAR-8 ovarian = tested on: OVCAR-8 ovarian
CCRF-CEM leukemia = tested on: CCRF-CEM leukemia
ACHN renal = tested on: ACHN renal
NCI/ADR-RES ovarian = tested on: NCI/ADR-RES ovarian
SNB-19 CNS = tested on: SNB-19 CNS
SR leukemia = tested on: SR leukemia
A498 renal = tested on: A498 renal
MALME-3M melanoma = tested on: MALME-3M melanoma
HL-60(TB) leukemia = tested on: HL-60(TB) leukemia
KM12 colon = tested on: KM12 colon
HOP-62 NSCLC = tested on: HOP-62 NSCLC
SK-OV-3 ovarian = tested on: SK-OV-3 ovarian
NCI-H322M lung = tested on: NCI-H322M lung
NCI-H226 lung = tested on: NCI-H226 lung
SF-295 CNS = tested on: SF-295 CNS
UACC-62 melanoma = tested on: UACC-62 melanoma
U251 CNS = tested on: U251 CNS
MDA-MB-435 = tested on: MDA-MB-435
HT29 colon = tested on: HT29 colon
RXF 393 renal = tested on: RXF 393 renal
M14 melanoma = tested on: M14 melanoma
SNB-75 CNS = tested on: SNB-75 CNS
SN12C renal = tested on: SN12C renal
SK-MEL-5 melanoma = tested on: SK-MEL-5 melanoma
SF-268 CNS = tested on: SF-268 CNS
SK-MEL-28 melanoma = tested on: SK-MEL-28 melanoma
OVCAR-4 ovarian = tested on: OVCAR-4 ovarian
786-0 renal = tested on: 786-0 renal
EKVX NSCLC = tested on: EKVX NSCLC
T-47D breast = tested on: T-47D breast
NCI-H460 lung = tested on: NCI-H460 lung
OVCAR-5 ovarian = tested on: OVCAR-5 ovarian
SW-620 colon = tested on: SW-620 colon
MOLT-4 leukemia = tested on: MOLT-4 leukemia
NCI-H23 lung = tested on: NCI-H23 lung
DU-145 prostate = tested on: DU-145 prostate
TK-10 renal = tested on: TK-10 renal
HCT-116 colon = tested on: HCT-116 colon
OVCAR-3 ovarian = tested on: OVCAR-3 ovarian
HS 578T breast = tested on: HS 578T breast
UO-31 renal = tested on: UO-31 renal
IGROV1 ovarian = tested on: IGROV1 ovarian
COLO 205 colon = tested on: COLO 205 colon
UACC-257 melanoma = tested on: UACC-257 melanoma
NCI-H522 lung = tested on: NCI-H522 lung
HCT-15 colon = tested on: HCT-15 colon
A549 NSCLC = tested on: A549 NSCLC
HCC-2998 colon = tested on: HCC-2998 colon
CAKI-1 renal = tested on: CAKI-1 renal
K-562 leukemia = tested on: K-562 leukemia

Structure (SMILES): CC#CC(O)(C(=O)OC1CCN(C)C1)c1ccccc1 (centres undefined)
- GI50 (MDA-N): > 100 µM
- TGI (MDA-N): > 100 µM
- GI50 (RPMI-8226 leukemia): > 100 µM
- TGI (RPMI-8226 leukemia): > 100 µM
- GI50 (PC-3 prostate): > 100 µM
- TGI (PC-3 prostate): > 100 µM
- GI50 (SK-MEL-2 melanoma): > 100 µM
- TGI (SK-MEL-2 melanoma): > 100 µM
- GI50 (SF-539 CNS): > 100 µM
- TGI (SF-539 CNS): > 100 µM
- GI50 (MDA-MB-231 breast): > 100 µM
- TGI (MDA-MB-231 breast): > 100 µM
- GI50 (LOX IMVI melanoma): 0.182 µM
- TGI (LOX IMVI melanoma): 15.4 µM
- GI50 (OVCAR-8 ovarian): > 100 µM
- TGI (OVCAR-8 ovarian): > 100 µM
- GI50 (CCRF-CEM leukemia): > 100 µM
- TGI (CCRF-CEM leukemia): > 100 µM
- GI50 (ACHN renal): > 100 µM
- TGI (ACHN renal): > 100 µM
- GI50 (NCI/ADR-RES ovarian): > 100 µM
- TGI (NCI/ADR-RES ovarian): > 100 µM
- GI50 (SNB-19 CNS): > 100 µM
- TGI (SNB-19 CNS): > 100 µM
- GI50 (SR leukemia): > 100 µM
- TGI (SR leukemia): > 100 µM
- GI50 (A498 renal): > 100 µM
- TGI (A498 renal): > 100 µM
- GI50 (MALME-3M melanoma): > 100 µM
- TGI (MALME-3M melanoma): > 100 µM
- GI50 (HL-60(TB) leukemia): > 100 µM
- TGI (HL-60(TB) leukemia): > 100 µM
- GI50 (KM12 colon): > 100 µM
- TGI (KM12 colon): > 100 µM
- GI50 (HOP-62 NSCLC): > 100 µM
- TGI (HOP-62 NSCLC): > 100 µM
- GI50 (SK-OV-3 ovarian): > 100 µM
- TGI (SK-OV-3 ovarian): > 100 µM
- GI50 (NCI-H322M lung): > 100 µM
- TGI (NCI-H322M lung): > 100 µM
- GI50 (NCI-H226 lung): > 100 µM
- TGI (NCI-H226 lung): > 100 µM
- GI50 (SF-295 CNS): 0.359 µM
- TGI (SF-295 CNS): 22.3 µM
- GI50 (UACC-62 melanoma): > 100 µM
- TGI (UACC-62 melanoma): > 100 µM
- GI50 (U251 CNS): > 100 µM
- TGI (U251 CNS): > 100 µM
- GI50 (MDA-MB-435): > 100 µM
- TGI (MDA-MB-435): > 100 µM
- GI50 (HT29 colon): > 100 µM
- TGI (HT29 colon): > 100 µM
- GI50 (RXF 393 renal): > 100 µM
- TGI (RXF 393 renal): > 100 µM
- GI50 (M14 melanoma): > 100 µM
- TGI (M14 melanoma): > 100 µM
- GI50 (SNB-75 CNS): > 100 µM
- TGI (SNB-75 CNS): > 100 µM
- GI50 (SN12C renal): > 100 µM
- TGI (SN12C renal): > 100 µM
- GI50 (SK-MEL-5 melanoma): > 100 µM
- TGI (SK-MEL-5 melanoma): > 100 µM
- GI50 (SF-268 CNS): > 100 µM
- TGI (SF-268 CNS): > 100 µM
- GI50 (SK-MEL-28 melanoma): > 100 µM
- TGI (SK-MEL-28 melanoma): > 100 µM
- GI50 (OVCAR-4 ovarian): > 100 µM
- TGI (OVCAR-4 ovarian): > 100 µM
- GI50 (786-0 renal): > 100 µM
- TGI (786-0 renal): > 100 µM
- GI50 (EKVX NSCLC): > 100 µM
- TGI (EKVX NSCLC): > 100 µM
- GI50 (T-47D breast): > 100 µM
- TGI (T-47D breast): > 100 µM
- GI50 (NCI-H460 lung): > 100 µM
- TGI (NCI-H460 lung): > 100 µM
- GI50 (OVCAR-5 ovarian): 0.443 µM
- TGI (OVCAR-5 ovarian): > 100 µM
- GI50 (SW-620 colon): > 100 µM
- TGI (SW-620 colon): > 100 µM
- GI50 (MOLT-4 leukemia): > 100 µM
- TGI (MOLT-4 leukemia): > 100 µM
- GI50 (NCI-H23 lung): > 100 µM
- TGI (NCI-H23 lung): > 100 µM
- GI50 (DU-145 prostate): > 100 µM
- TGI (DU-145 prostate): > 100 µM
- GI50 (TK-10 renal): > 100 µM
- TGI (TK-10 renal): > 100 µM
- GI50 (HCT-116 colon): > 100 µM
- TGI (HCT-116 colon): > 100 µM
- GI50 (OVCAR-3 ovarian): > 100 µM
- TGI (OVCAR-3 ovarian): > 100 µM
- GI50 (HS 578T breast): > 100 µM
- TGI (HS 578T breast): > 100 µM
- GI50 (UO-31 renal): > 100 µM
- TGI (UO-31 renal): > 100 µM
- GI50 (IGROV1 ovarian): > 100 µM
- TGI (IGROV1 ovarian): > 100 µM
- GI50 (COLO 205 colon): > 100 µM
- TGI (COLO 205 colon): > 100 µM
- GI50 (UACC-257 melanoma): > 100 µM
- TGI (UACC-257 melanoma): > 100 µM
- GI50 (NCI-H522 lung): > 100 µM
- TGI (NCI-H522 lung): > 100 µM
- GI50 (HCT-15 colon): > 100 µM
- TGI (HCT-15 colon): > 100 µM
- GI50 (A549 NSCLC): > 100 µM
- TGI (A549 NSCLC): > 100 µM
- GI50 (HCC-2998 colon): > 100 µM
- TGI (HCC-2998 colon): > 100 µM
- GI50 (CAKI-1 renal): > 100 µM
- TGI (CAKI-1 renal): > 100 µM
- GI50 (K-562 leukemia): > 100 µM
- TGI (K-562 leukemia): > 100 µM
